Experimental data: PMC12737281, “In Situ Evaluation of the GSH Depletion Ability of Various Alkylating Agents and the Protective Effect of Several Active Thiol Compounds Based on High-Content Cell Analysis” (2025)

What was measured:
[1] = test system: intracellular GSH in HaCaT cells; experiment: Screening of protective drugs against alkylating agent-induced GSH depletion (mBCL, high-content cell analysis); details: for effect on GSH level in cells: 1 mM protective drug

| Compound | effect on GSH level in cells ([1]; HD (120 μM), HaCaT cells) | cell viability (HaCaT cells; NEM at 10 μM) | IC50 (HaCaT cells; read-out: IC50 (cytotoxicity), 24 h exposure, CCK-8) [µM] | concentration at which fluorescence intensity peaked (optimal concentration) ([1]; HaCaT cells, HD (120 μM), concentration optimisation) [µM] | fluorescence intensity in cells (intracellular GSH) after adding the protective drug ([1]; exposure to HD (120 μM), CECM (100 μM), Q (20 μM), HN2 (10 μM)) |
| --- | --- | --- | --- | --- | --- |
| N-acetylcysteine | effectively increase the GSH level in cells |  |  |  |  |
| CCN1C(=O)C=CC1=O |  | more than 95% | 39.8 |  |  |
| glutathione monoethyl ester | effectively increase the GSH level in cells |  |  | 30 | significantly increased |
| N[C@@H](CCC(=O)N[C@@H](CS)C(=O)NCC(=O)O)C(=O)O | effectively increase the GSH level in cells |  |  |  |  |
